Measurements taken from US6756233B1 (dated 2004).

System: albumin and/or SHBG
Design: species or system human

With `O=C([O-])c1ccccc1O.[Na+]` [sodium salicylate] the “effect on protein-bound testosterone and tracer” value was “displace testosterone from albumin and/or SHBG”.
